# US20240131155A1, “T CELLS FOR USE IN THERAPY” (Erasmus University Medical Center Rotterdam, priority 2021, published 2024)
# T1: ROPN1B peptide on HLA-A*02:01 (human)
# T1 peptide: EVIGPDGLITV
# B1: EVI TCR (TCR, V domains shown)
# Valpha: AQSVTQLDSQVPVFEEAPVELRCNYSSSVSVYLFWYVQYPNQGLQLLLKYLSGSTLVKGINGFEAEFNKSQTSFHLRKPSVHISDTAEYFCAARTGGGNKLTFGTGTQLKVEL
# Vbeta: DTEVTQTPKHLVMGMTNKKSLKCEQHMGHRAMYWYKQKAKKPPELMFVYSYEKLSINESVPSRFSPECPNSSLLNLHLHALQPEDSALYLCASSQEGLAGVPQYFGPGTRLLVL
# Molecular target: T1, ROPN1B peptide on HLA-A*02:01
# Assay: multimer staining
binder,measurement,value
B1,binding result,recognises
